## Apparent affinities of Ab-95 variants for a coronavirus HR2 peptide

Reference: Engelhart et al. 2022, doi:10.1038/s41597-022-01779-4. File: FLAb, binding data.

All variants were tested on one target, the spike HR2 peptide PDVDLGDISGINAS (SARS-CoV-2).

Ab-95 is the parent antibody, in scFv form: VH, then three GGGGS repeats, then VL. The heavy chain is unchanged in all variants.
VH: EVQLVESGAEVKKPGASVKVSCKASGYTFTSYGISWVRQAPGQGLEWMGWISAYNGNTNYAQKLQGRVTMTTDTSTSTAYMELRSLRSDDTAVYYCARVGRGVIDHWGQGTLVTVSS
VL: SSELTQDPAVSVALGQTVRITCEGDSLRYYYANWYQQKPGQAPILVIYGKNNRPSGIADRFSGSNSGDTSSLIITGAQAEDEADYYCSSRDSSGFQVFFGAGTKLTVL

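Library AAYL52 holds single substitutions and randomly drawn double and triple substitutions in the CDRs. The scFvs were displayed on barcoded MATa yeast, the peptide on MATalpha yeast. Binding brings cells together so that they mate, and sequencing counts the barcode pairs among the diploids. Read counts were normalised to the haploid input and turned into Kd by a linear fit to BCL2-family pairs of known affinity, for each replicate. The assay was run in three technical replicates.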

Positions count from residue 1 of the parent VL; R28S puts S in place of R. This list gathers variants with a substitution at R28 (VL, numbered from residue 1). Kd is apparent (estimated from mating counts) and averaged on the log scale over replicates with a signal. Smaller is tighter. A pair that was not seen in any replicate is written "no signal"; this usually means weak binding, but a binder can also be missed. The list is sorted by this average, lowest first, undetected variants last. Parent in this assay: reference entry 200 nM, copy in this library 180 nM. As a blank, each scFv also met three strains without target: over library AAYL52, 28% of these pairings were detected, typically at 8.2 µM and seldom below 800 nM.

changes	apparent Kd	detected
R28S+Y29G+Y31M	17 nM	3 of 3
R28L+Y30H+K50V	18 nM	3 of 3
R28K+A32F+P54A	31 nM	3 of 3
E23Q+R28Q+S92E	32 nM	3 of 3
E23R+R28L+N52T	60 nM	3 of 3
G24R+R28Q+K50N	70 nM	3 of 3
R28S+S55Q+Q96S	91 nM	3 of 3
E23Q+R28G+S89D	140 nM	3 of 3
R28G+G94R	160 nM	3 of 3
R28S+A32H+F95D	170 nM	3 of 3
R28T	180 nM	3 of 3
R28S+S55Y+S89F	200 nM	3 of 3
R28N+R90F+V97M	290 nM	3 of 3
R28A+Y29W+N52T	320 nM	3 of 3
R28H+Q96F	320 nM	3 of 3
R28A+Y30T+N51M	340 nM	3 of 3
R28S+Q96D+V97F	350 nM	3 of 3
R28E+A32S	350 nM	3 of 3
R28S+S55R	380 nM	3 of 3
R28E+P54N+Q96Y	400 nM	3 of 3
R28H+R53V+S55D	440 nM	3 of 3
D25P+R28N+S88L	490 nM	3 of 3
R28F+Y29T+D91C	560 nM	2 of 3
R28D+P54M+S88L	790 nM	3 of 3
R28V+Q96P+F98M	880 nM	2 of 3
R28W	1.0 µM	3 of 3
G24R+R28C+S92P	1.2 µM	3 of 3
R28S+S55T+V97T	1.3 µM	3 of 3
R28H+Y31P+A32Y	1.3 µM	3 of 3
R28C+R90W+Q96P	1.7 µM	3 of 3
R28E+Q96P	1.7 µM	3 of 3
R28S+P54D+G94C	2.2 µM	2 of 3
R28Y+N51F+N52E	2.4 µM	3 of 3
R28N+Y31T+A32Q	2.4 µM	2 of 3
R28P+K50F+S55W	2.4 µM	2 of 3
R28Q+A32Q+N51T	2.6 µM	1 of 3
R28H+S89P	2.7 µM	1 of 3
E23P+R28S+G94A	2.7 µM	1 of 3
R28V+A32H+S93R	3.2 µM	1 of 3
R28Q+P54S+S89R	3.4 µM	3 of 3
R28Y+G49N+V97F	3.5 µM	2 of 3
R28K+S55H+G94S	4.2 µM	3 of 3
R28S+N33W+Q96D	4.5 µM	1 of 3
L27Q+R28E+R53G	5.9 µM	1 of 3
R28F+N33M+N51V	6.3 µM	2 of 3
L27Y+R28D+S89Y	7.0 µM	2 of 3
S26I+R28M+Q96D	9.2 µM	1 of 3
G24L+R28Y+N51D	12 µM	2 of 3
S26Y+R28F+R90G	13 µM	1 of 3
L27W+R28G	15 µM	1 of 3
R28C+G49W+K50E	15 µM	2 of 3
R28V+N52H+S93P	15 µM	1 of 3
R28D+G49R+P54S	32 µM	2 of 3
R28F+S55C	33 µM	1 of 3
R28P+N33T+G49C	38 µM	2 of 3
L27S+R28V+R90G	39 µM	1 of 3
R28C+S89R+G94H	220 µM	1 of 3
R28A+Y31H+N33D	870 µM	1 of 3
D25Y+R28V+R53P	no signal	0 of 3
G24N+R28W+S92N	no signal	0 of 3
S26W+R28F+R90T	no signal	0 of 3
R28Q+G94N+Q96E	no signal	0 of 3
R28P+F95W	no signal	0 of 3
R28G+N33L+D91S	no signal	0 of 3

The closing 9 entries, repeated:

changes	apparent Kd	detected
L27S+R28V+R90G	39 µM	1 of 3
R28C+S89R+G94H	220 µM	1 of 3
R28A+Y31H+N33D	870 µM	1 of 3
D25Y+R28V+R53P	no signal	0 of 3
G24N+R28W+S92N	no signal	0 of 3
S26W+R28F+R90T	no signal	0 of 3
R28Q+G94N+Q96E	no signal	0 of 3
R28P+F95W	no signal	0 of 3
R28G+N33L+D91S	no signal	0 of 3